This is an account of results in US12714711B2, “Salts of neuroceuticals and uses thereof” (priority 2020, dated 2026).

Like-named read-outs stand apart in the source and are kept apart here.

As usually defined, the Cmax is the maximum level reached in the sampled fluid or tissue.

The conditions of series [1]: mice. The method, then: The testing compounds were administered to mice either through intraperitoneal (i.p.) injection or oral gavage before analyzing blood glucose levels.
For the acute study, two cohorts of mice were used.
For repeated-dose study, mice were randomly assigned into five groups as listed below. • Group 1: Vehicle control • Group 2: Clz (3 mg/kg) • Group 3: Clz:NA 1:1 salt (4.13 mg/kg) • Group 4: Clz (10 mg/kg) • Group 5: Clz:NA 1:1 salt (13.77 mg/kg)
The night before blood glucose levels were measured, the mice were fasted. Blood glucose levels were measured with a portable glucose meter (Contour® Plus, Bayer AG, Leverkusen, Germany) After waiting for 60 min, the treatments indicated above were administered. FIG. 75 illustrates the experimental design of this study. […]
The night before the glucose tolerance test, the mice fasted. Blood glucose levels were measured in whole blood that was collected from the mouse's tail vein. Glucose levels were measured with a portable glucose meter (Contour® Plus, Bayer AG, Leverkusen, Germany), with the measurement occurring 60 min after the mice were dosed with the treatments indicated above Immediately following the glucose measurement, all mice were subjected to a glucose tolerance test, which involved an intraperitoneal challenge injection of 1 g/kg of glucose, followed by measuring blood glucose levels at 0, 30, 60 and 120 minutes.

The conditions of series [2]: GTT.
Another series can be described thus: in vivo. The note with it: male, Sprague-Dawley, rat, po, 60 mg/kg. Here is the method: All animals used in this study were adult rats (at least 2.5 months of age).
Male Sprague-Dawley rats having a bodyweight between 250-300 g were randomly assigned to two groups. […] The chemicals were suspended in sesame oil and administrated by single oral gavage at 2 ml/kg. All rats were fasted overnight with free access to water before oral administration of the testing compositions. On the day of dosing, the blood samples were collected at 0 min (prior to dosing), and 0.25, 0.5, 1, 2, 4, 6, 8, and 24 hr post-dosing.
Blood samples were collected from rat jugular veins and transferred into tubes coated with sodium heparin. To obtain plasma, the blood samples were centrifuged at 2,500×g for 15 min at 4° C. and the supernatants were collected and kept frozen in a freezer at −80° C., until they were analyzed.
The plasma concentration of donepezil was determined by LC/MS. The chromatographic separation was carried out on a 5 μm EVO C8 100 Å LC column (100×4.6 mm, Kinetex®). The mobile phase was 0.1% formic acid in water and acetonitrile:methanol=8:2 set as gradient. Flow rate used was 0.3 mL/min. Column temperature was maintained at 40° C. and the injection volume was 30 μL.
The pharmacokinetic parameters were calculated using non-compartmental analysis (NCA) with WinNonlin to assess the systemic exposure of donepezil in rats.

Turning to `Cc1cc2c(s1)Nc1ccccc1N=C2N1CCN(C)CC1.O=C(O)c1cccnc1` [olanzapine:nicotinic acid 1:1 salt], the “fasting blood glucose level compared to vehicle control” value in series [1] (acute i.p. injection, olanzapine 5 and 10 mg/kg or salt 6.97 and 13.94 mg/kg) is given as “blood glucose levels comparable to those of the vehicle control group”; in series [1] (acute oral, olanzapine 10 mg/kg, NA 3.94 mg/kg, mixture, or salt 13.94 mg/kg), “no to moderate impacton elevated fasting blood glucose levels”. The “Blood glucose level compared to vehicle after 120 min” value turned out to be 1.5 in series [2] (acute oral, olanzapine 10 mg/kg); 2.21 in series [2] (dosage of olanzapine 5 mg/kg (Table 23)); 2.75 in series [2] (dosage of olanzapine 10 mg/kg (Table 23)).
In the series “in vivo”, `CN1CCN(C2=Nc3cc(Cl)ccc3Nc3ccccc32)CC1` [clozapine, reference compound] showed a Cmax of 191 ng/mL.
